ChEMBL document CHEMBL1125513, “Substituted 1-(aminomethyl)-2-(arylacetyl)-1,2,3,4-tetrahydroisoquinolines: a novel class of very potent antinociceptive agents with varying degrees of selectivity for kappa and mu opioid receptors” (1992)

By UniProt entry, the sequences of proteins in these tests, tags left out. Where a name states a change or a piece, a line headed by the entry shows the natural chain unless it says otherwise.
UniProt P41145: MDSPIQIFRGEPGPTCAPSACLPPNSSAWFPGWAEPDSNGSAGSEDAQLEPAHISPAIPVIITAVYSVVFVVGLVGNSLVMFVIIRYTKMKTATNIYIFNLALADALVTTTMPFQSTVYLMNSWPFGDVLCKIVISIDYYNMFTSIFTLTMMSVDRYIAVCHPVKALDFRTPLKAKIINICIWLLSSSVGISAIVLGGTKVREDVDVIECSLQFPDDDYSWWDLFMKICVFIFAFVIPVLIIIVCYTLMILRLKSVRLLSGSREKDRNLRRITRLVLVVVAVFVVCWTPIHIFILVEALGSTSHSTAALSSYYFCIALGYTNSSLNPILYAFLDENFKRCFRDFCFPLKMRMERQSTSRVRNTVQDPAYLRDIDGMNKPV
UniProt P35372, whole entry, looked up: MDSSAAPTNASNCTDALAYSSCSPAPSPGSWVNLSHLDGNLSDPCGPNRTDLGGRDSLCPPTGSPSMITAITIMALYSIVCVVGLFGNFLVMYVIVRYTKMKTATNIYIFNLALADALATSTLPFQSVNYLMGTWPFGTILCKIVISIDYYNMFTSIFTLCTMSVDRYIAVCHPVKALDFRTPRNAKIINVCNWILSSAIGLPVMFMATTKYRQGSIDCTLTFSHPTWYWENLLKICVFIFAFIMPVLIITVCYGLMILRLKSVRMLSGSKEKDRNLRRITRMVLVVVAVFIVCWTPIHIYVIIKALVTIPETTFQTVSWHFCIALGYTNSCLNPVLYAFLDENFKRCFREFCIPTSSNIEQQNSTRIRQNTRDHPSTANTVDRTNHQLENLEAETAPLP

target: Opioid receptors; mu & kappa (Homo sapiens) (UniProt P41145+P35372); assay: Selectivity Ratio is the ratio of opioid receptor kappa (Ki(nM)) to the opioid receptor mu (Ki(nM)); settings: Cavia porcellus

SMILES	Selectivity ratio
CC1(C)CN(C(=O)Cc2ccc(Cl)c(Cl)c2)C(CN2CCCC2)c2ccccc21 (stereo unspecified)	104
O=C(Cc1ccc(Cl)c(Cl)c1)N1CCc2c(O)cccc2C1CN1CCCC1 (stereo unspecified)	5.4
C[C@@H]1CN(C(=O)Cc2ccc(Cl)c(Cl)c2)[C@@H](CN2CCCC2)c2ccccc21	94
CN(C(=O)Cc1ccc(Cl)c(Cl)c1)C1CCCCC1N1CCCC1 (stereo unspecified)	280
O=C(Cc1ccc(Cl)c(Cl)c1)N1CCc2ccccc2C1CN1CCCC1 (stereo unspecified)	151
C[C@@H]1Cc2ccccc2[C@H](CN2CCCC2)N1C(=O)Cc1ccc(Cl)c(Cl)c1	26
